Measurements taken from ChEMBL document CHEMBL1139192, “Novel bis(indolyl)maleimide pyridinophanes that are potent, selective inhibitors of glycogen synthase kinase-3” (Bioorg Med Chem Lett, 2007).

Sequences of proteins named here, by UniProt entry; tags and fusion partners are left off.
UniProt P49137, whole entry, looked up: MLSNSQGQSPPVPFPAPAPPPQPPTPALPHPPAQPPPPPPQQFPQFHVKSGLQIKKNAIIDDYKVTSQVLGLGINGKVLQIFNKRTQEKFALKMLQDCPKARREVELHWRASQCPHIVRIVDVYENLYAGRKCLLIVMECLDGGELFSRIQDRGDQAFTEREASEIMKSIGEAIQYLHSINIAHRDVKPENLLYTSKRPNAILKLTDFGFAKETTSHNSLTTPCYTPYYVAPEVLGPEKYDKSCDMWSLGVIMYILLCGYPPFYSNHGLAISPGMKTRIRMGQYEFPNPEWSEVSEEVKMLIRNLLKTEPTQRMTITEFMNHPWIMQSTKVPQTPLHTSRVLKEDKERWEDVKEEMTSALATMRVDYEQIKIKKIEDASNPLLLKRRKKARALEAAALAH

Columns and labels:
[1] = tested on: Saccharomyces cerevisiae; assay: Residual activity of yeast CK1 at 1 uM relative to control
[2] = species on record: Homo sapiens; assay: Residual activity of human CDK1/Cyclin B at 1 uM relative to control
[3] = Inhibition of MEK1 at 1 uM relative to control; values are per cent of control; details: Homo sapiens
[4] = target: MAP kinase-activated protein kinase 2 (Homo sapiens) (UniProt P49137); assay: Inhibition of MAPKAPK2 at 1 uM relative to control; values are per cent of control
[5] = species on record: Rattus norvegicus; assay: Inhibition of rat CaMK2 at 1 uM relative to control; values are per cent of control

## O=C1NC(=O)C2=C1c1cn(c3ccccc13)CCCc1ccc(c(N3CCCC3)n1)CCCn1cc2c2ccccc21
[1]
  residual activity: 98%
[2]
  residual activity: 98%
[3]
  residual activity: 98%
[4]
  residual activity: 95%
[5]
  residual activity: 98%
